Yeast UUG start = alters start codon recognition fidelity in yeast. S. cerevisiae UUG-firefly luciferase reporter, luminescence/redox ratio. activity score, % at 18.7 µM. 0.13% of 350,000 active. AID 602363;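 active = replicate mean at a twofold rise or more, about +100% in these data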;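 also: firefly luciferase made from a UUG start codon reports start codon fidelity; reporter light over untreated wells divided by growth signal over untreated wells; some hits fall short of that in this replicate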
MLL AF4-AF9 inh = blocks AF4 peptide binding to human AF9. inhibition, % at 10 µM. AlphaScreen, biotin-AF4 peptide binding to FLAG-AF9. actives 0.47% (n = 350,000). AID 651704. P42568;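 active = every replicate reaching a set inhibition limit, whatever the replicate mean, cut at about 25% in these data; inconclusive = mean inhibition reaches that limit but some replicates miss it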;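 note: 0% = plate neutral control median and 100% = total signal loss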
RAD52 inh = RAD52 (human) annealing inhibition. P43351. inhibition, % at 18.7 µM. AID 651710. actives 0.46% (n = 360,000). recombinant RAD52 DNA annealing, FRET fluorescence;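 active = every replicate showing at least 50% inhibition; inconclusive = mean inhibition at least 50% but not in every replicate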
E-selectin induc = induces E-selectin expression in human endothelial cells; P16581; HUVEC E-selectin immunofluorescence imaging; normalized: neutral wells 0, TNF-alpha wells 100; activation, % at 7.58 µM; actives 0.37% (n = 260,000); AID 686992;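 active = mean E-selectin-positive cell signal at least 10% of the positive control, reached in at least 60% of replicates, without over 20% cell loss; inconclusive = no rule given, readout overlaps actives, possibly toxicity-flagged; inactive = the rest, including those meeting only one limit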
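Material: HUVEC primary endothelial cells; Amount: 3,000 cells per well; Dosing: single concentration; Medium: EGM-2 growth medium on 0.1% gelatin-coated wells; Read-out basis: percent E-selectin-positive cells; Signal: immunofluorescence imaging; Control set: TNF-alpha, DMSO.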
SIRT5 block = sirtuin-5 (human) deacylase inhibition; Purified SirT5, succinyl-peptide AMC, trypsin-coupled fluorescence; inhibition, % at 15 µM; actives 1.1% (n = 330,000); in the data active = inhibition above about 15%; inconclusive = no clear call, values can overlap the other calls
RAD54 branch = blocks human RAD54 Holliday junction branch migration | FAM/BHQ fluorescence | actives 0.14% (n = 360,000) | Q92698 | AID 602329 | inhibition, % at 10.4 µM;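 active = mean normalized replicate activity at least 40 and at least half of replicates scoring 40 or more; inconclusive = only one of the two criteria met; inactive = mean below 40 and under half of replicates reaching 40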;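 note: 0% = median of neutral control wells and 100% = median of positive control wells; inhibitors cause a drop in the FAM fluorescence signal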
An asterisk follows results filed as active; ? = inconclusive; . = no result given. In the library only some 1.8% were active in any assay of this set; here they are far more common.

| entry | smiles | Yeast UUG start | MLL AF4-AF9 inh | RAD52 inh |
| --- | --- | --- | --- | --- |
| 1 | Cc1cccc(NC(=O)NCCN2CCCCC2)c1 | 1.2 | 1.1 | -23.3 |
| 2 | COc1ccc(CN2CC3(CN(Cc4ccccc4OC)C3)c3c([nH]c4cc(OC)ccc34)[C@H]2CO)cc1 | . | 14.0 | 11.3 |
| 3 | COc1ccc2c3c([nH]c2c1)[C@H](CO)N(C(=O)CN(C)C)CC31CN(Cc2ccccc2)C1 | . | 4.7 | 55.2* |
| 4 | COCC(=O)N1CC2(CN(Cc3ccccc3)C2)c2c([nH]c3cc(OC)ccc23)[C@@H]1CO | . | 1.4 | 4.9 |
| 5 | CCC(=O)N1CC2(CCN(Cc3ccc(Cl)cc3)CC2)c2c([nH]c3cc(OC)ccc23)[C@@H]1CO | . | 26.1* | . |
| 6 | COc1ccc(CN2CC3(C2)CN(Cc2ccc4c(c2)OCO4)[C@@H](CO)c2[nH]c4cc(OC)ccc4c23)cc1 | . | 49.9* | . |
| 7 | COc1ccc2c3c([nH]c2c1)[C@@H](CO)N(Cc1nccs1)CC31CCN(Cc2cccnc2)CC1 | . | 0.4 | 60.4* |
| 8 | CNC[C@@H]1OCCCC[C@@H](C)Oc2ccc(NS(=O)(=O)c3c(C)noc3C)cc2C(=O)N([C@@H](C)CO)C[C@H]1C | -20.1 | . | . |
| 9 | CCC(=O)N(C)C[C@@H]1Oc2cc(-c3cccc(OC)c3)ccc2S(=O)(=O)N([C@H](C)CO)C[C@H]1C | 11.7 | -3.7 | 0.2 |
| 10 | COc1ccc2c3c([nH]c2c1)[C@@H](CO)N(C(=O)c1ccc(F)cc1)CC31CN(S(=O)(=O)c2cccs2)C1 | . | -1.2 | 18.9 |
| 11 | CCCNC(=O)N1CC2(CCN(C(=O)C3CCC3)CC2)c2c([nH]c3cc(OC)ccc23)[C@@H]1CO | . | 43.8* | . |
| 12 | CCCNC(=O)N1CC2(CCN(C(=O)C3CCCC3)CC2)c2c([nH]c3cc(OC)ccc23)[C@@H]1CO | . | -3.0 | -0.4 |

| entry | E-selectin induc | SIRT5 block | RAD54 branch |
| --- | --- | --- | --- |
| 1 | . | 2.0 | 5.5 |
| 2 | -0.4 | . | . |
| 3 | -0.6 | . | . |
| 4 | 0.1 | . | . |
| 5 | -0.5 | . | . |
| 6 | -0.5 | . | . |
| 7 | -0.3 | -2.3 | . |
| 8 | . | . | -5.0 |
| 9 | 0.6 | 1.4 | -1.0 |
| 10 | 0.2 | 4.7 | . |
| 11 | 0.0 | 0.0 | . |
| 12 | . | 2.6 | . |

Entries of single compounds, looked up by structure. Screens in order: Yeast UUG start, MLL AF4-AF9 inh, RAD52 inh, E-selectin induc, SIRT5 block, RAD54 branch
CNC[C@@H]1OCCCC[C@@H](C)Oc2ccc(NS(=O)(=O)c3c(C)noc3C)cc2C(=O)N([C@@H](C)CO)C[C@H]1C is entered as -20.1, ., ., ., ., -5.0
CCCNC(=O)N1CC2(CCN(C(=O)C3CCCC3)CC2)c2c([nH]c3cc(OC)ccc23)[C@@H]1CO is entered as ., -3.0, -0.4, ., 2.6, .
COc1ccc(CN2CC3(CN(Cc4ccccc4OC)C3)c3c([nH]c4cc(OC)ccc34)[C@H]2CO)cc1 is entered as ., 14.0, 11.3, -0.4, ., .
COc1ccc2c3c([nH]c2c1)[C@@H](CO)N(Cc1nccs1)CC31CCN(Cc2cccnc2)CC1 is entered as ., 0.4, 60.4*, -0.3, -2.3, .

Next part.
| entry | smiles | Yeast UUG start | MLL AF4-AF9 inh | RAD52 inh |
| --- | --- | --- | --- | --- |
| 13 | COc1ccc2c3c([nH]c2c1)[C@H](CO)N(C(=O)CN(C)C)CC31CN(CC2CC2)C1 | . | 13.3 | 50.2* |
| 14 | COc1ccc2c3c([nH]c2c1)[C@@H](CO)N(C(=O)CN(C)C)CC31CN(CC2CC2)C1 | . | 16.1 | 55.9* |
| 15 | CCCN(C)C[C@H]1OCCCC[C@H](C)Oc2ccc(NS(=O)(=O)c3ccccc3)cc2C(=O)N([C@H](C)CO)C[C@H]1C | 3.9 | 3.8 | 14.6 |
| 16 | C[C@@H]1CN([C@H](C)CO)C(=O)c2cc(-c3ccc(F)cc3)cnc2O[C@@H]1CN(C)C(=O)c1ccc(F)cc1 | -4.4 | -2.3 | 7.5 |
| 17 | O=C(Nc1ccccc1C(=O)O)c1cccc(NC(=O)c2ccccc2Br)c1 | -2.9 | 1.7 | -3.6 |
| 18 | CC(=O)NC(=S)Nc1ccc(NC(=S)NC(=O)/C=C/c2ccco2)cc1 | . | -0.1 | -10.7 |
| 19 | O=C(/C=C/c1ccco1)Nc1cccc(C(=O)Nc2ccccc2C(=O)O)c1 | 10.3 | -7.9 | -45.6 |
| 20 | O=C(Nc1cc(C(=O)Nc2ccccc2C(=O)O)cc(C(=O)Nc2ccccc2C(=O)O)c1)c1ccccc1 | -11.1 | -5.1 | -4.7 |
| 21 | O=C(/C=C/c1ccco1)NC(=S)Nc1ccc(C(=O)O)cc1 | . | -10.5 | -90.1 |
| 22 | CC(C)CC#Cc1cnc2c(c1)C(=O)N([C@@H](C)CO)C[C@@H](C)[C@@H](CN(C)C(=O)Cc1cccnc1)O2 | -18.4 | -7.1 | 5.5 |
| 23 | COc1ccc(C(=O)N2CCN(c3ccccc3OC)CC2)cc1 | -6.8 | -4.8 | 3.0 |
| 24 | N#Cc1ccc(C(=O)OCC(=O)N2CCN(C(=O)c3ccco3)CC2)cc1 | -6.9 | -2.0 | -10.7 |

| entry | E-selectin induc | SIRT5 block | RAD54 branch |
| --- | --- | --- | --- |
| 13 | -0.1 | 7.7 | . |
| 14 | 0.4 | -2.2 | . |
| 15 | 0.0 | -1.2 | -2.0 |
| 16 | -0.2 | 0.5 | 3.6 |
| 17 | . | 1.1 | -2.0 |
| 18 | . | 1.9 | . |
| 19 | . | 21.1* | -3.0 |
| 20 | -0.1 | 24.7* | -6.2 |
| 21 | 0.8 | 21.9* | . |
| 22 | 0.4 | -1.8 | -3.7 |
| 23 | -0.4 | . | -2.2 |
| 24 | 0.5 | 22.9* | -2.2 |

Following part:
| entry | smiles | Yeast UUG start | MLL AF4-AF9 inh | RAD52 inh |
| --- | --- | --- | --- | --- |
| 25 | COc1ccc(C(=O)N2CCN(C(=O)c3ccco3)CC2)cc1 | -14.3 | . | . |
| 26 | CC(=O)Nc1ccc(C(=O)N2CCN(C(=O)c3ccco3)CC2)cc1 | -13.7 | 0.2 | -4.3 |
| 27 | COc1cc(OC)cc(C(=O)N2CCC(N3CCN(c4ccccc4OC)CC3)CC2)c1 | . | -5.4 | -12.1 |
| 28 | COc1ccccc1N1CCN(C(=O)c2ccco2)CC1 | 0.1 | -0.6 | -8.4 |
| 29 | O=C(OCC(=O)N1CCN(C(=O)c2ccco2)CC1)c1ccccc1 | . | 0.8 | -13.1 |
| 30 | CCC(=O)N(C)C[C@H]1Oc2cc(-c3ccccc3)ccc2S(=O)(=O)N([C@H](C)CO)C[C@H]1C | 4.9 | 0.6 | 7.5 |
| 31 | CCCNC(=O)N(C)C[C@H]1Oc2cc(-c3cncnc3)ccc2S(=O)(=O)N([C@H](C)CO)C[C@H]1C | . | 1.2 | 4.6 |
| 32 | Cc1cc(C)n(-c2nc(NCCCN(C)C)c3c4c(sc3n2)CCCC4)n1 | -14.1 | . | 52.5* |
| 33 | Cc1nnc(NC(=O)CSc2nnc(CC(=O)Nc3ccccc3F)n2C)s1 | -19.1 | 53.4* | -0.9 |
| 34 | COc1ccc2c3c(n(C)c2c1)[C@@H](CO)N(Cc1ccc(F)cc1)CC31CCN(CC2CC2)CC1 | . | ? | 1.0 |
| 35 | COc1ccc2c3c(n(C)c2c1)[C@H](CO)NCC31CN(Cc2ccccc2F)C1 | . | 54.0* | . |
| 36 | COc1ccc2c3c(n(C)c2c1)[C@H](CO)NCC31CCN(Cc2cc(-c3ccccc3)on2)CC1 | . | 38.6* | 66.9* |

| entry | E-selectin induc | SIRT5 block | RAD54 branch |
| --- | --- | --- | --- |
| 25 | . | . | -4.5 |
| 26 | . | 16.6* | 5.6 |
| 27 | 1.5 | 24.1* | . |
| 28 | 34.5* | -4.5 | -8.9 |
| 29 | 0.3 | -2.4 | . |
| 30 | -0.3 | -4.2 | 7.8 |
| 31 | 0.7 | -10.2 | 2.0 |
| 32 | 0.1 | 0.6 | 21.5 |
| 33 | . | 11.3 | -9.6 |
| 34 | -0.1 | . | . |
| 35 | -0.3 | . | . |
| 36 | 0.8 | 12.3 | . |

Later entries:
| entry | smiles | Yeast UUG start | MLL AF4-AF9 inh | RAD52 inh |
| --- | --- | --- | --- | --- |
| 37 | COc1ccc2c3c(n(C)c2c1)[C@H](CO)NCC31CN(Cc2ccncc2)C1 | . | 4.5 | . |
| 38 | COc1ccc2c3c(n(C)c2c1)[C@H](CO)NCC31CCN(Cc2ccccc2Cl)CC1 | . | 8.9 | . |
| 39 | COc1ccc2c3c(n(C)c2c1)[C@H](CO)N(CC1CC1)CC31CN(Cc2ccc(F)cc2)C1 | . | 30.6* | 35.0 |
| 40 | COc1ccc2c3c(n(C)c2c1)[C@H](CO)NCC31CCN(Cc2ccccc2F)CC1 | . | 12.9 | . |
| 41 | COc1ccc2c3c(n(C)c2c1)[C@@H](CO)NCC31CN(Cc2ccc(Cl)cc2)C1 | . | 45.2* | . |
| 42 | O=C(C1=C[C@H](c2ccc(C(F)(F)F)cc2)C[C@H](OCCCCO)O1)N1CCCCCCC1 | 7.1 | -1.5 | 8.1 |
| 43 | CCCNC(=O)Nc1ccc2c(c1)C(=O)N(C)C[C@@H](OC)[C@H](C)CN(C(C)=O)[C@@H](C)CO2 | -8.5 | -3.4 | -28.5 |
| 44 | COc1ccc2c3c(n(C)c2c1)[C@@H](CO)NCC31CN(Cc2cc(F)ccc2F)C1 | . | 24.2 | . |
| 45 | COc1ccc2c3c(n(C)c2c1)[C@H](CO)NCC31CN(Cc2ccc(F)cc2)C1 | . | 35.6* | 61.9* |
| 46 | COc1cc(CCCN2C(=S)NC[C@H]2Cc2ccc(O)cc2)cc(OC)c1OC | -19.8 | 0.2 | -5.4 |
| 47 | COc1cc(CCCN2C(=O)C(=O)NC[C@@H]2Cc2ccc(O)cc2)cc(OC)c1OC | -13.6 | 3.0 | -0.2 |

| entry | E-selectin induc | SIRT5 block | RAD54 branch |
| --- | --- | --- | --- |
| 37 | -0.2 | . | . |
| 38 | 0.2 | . | . |
| 39 | -0.3 | -1.9 | . |
| 40 | 0.1 | . | . |
| 41 | -0.5 | . | . |
| 42 | . | 2.5 | 3.7 |
| 43 | -0.3 | 1.6 | 11.3 |
| 44 | 0.2 | . | . |
| 45 | -0.1 | -8.9 | . |
| 46 | -0.1 | 31.7* | 3.1 |
| 47 | 0.0 | -1.7 | -7.8 |
